# The entries are a selection whose mix differs from that of the whole data set. Some tests of the compounds listed are not included; inactive here does not mean inactive elsewhere. Activity calls are given as the source filed them.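 How the source made its calls: active means inhibition above the mean over all tested compounds plus 3 SD (cut at about 21% in these data); inactive means the rest.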
# Sequences of proteins named here, by UniProt entry; tags and fusion partners are left off.
# UniProt Q9NR96, whole entry: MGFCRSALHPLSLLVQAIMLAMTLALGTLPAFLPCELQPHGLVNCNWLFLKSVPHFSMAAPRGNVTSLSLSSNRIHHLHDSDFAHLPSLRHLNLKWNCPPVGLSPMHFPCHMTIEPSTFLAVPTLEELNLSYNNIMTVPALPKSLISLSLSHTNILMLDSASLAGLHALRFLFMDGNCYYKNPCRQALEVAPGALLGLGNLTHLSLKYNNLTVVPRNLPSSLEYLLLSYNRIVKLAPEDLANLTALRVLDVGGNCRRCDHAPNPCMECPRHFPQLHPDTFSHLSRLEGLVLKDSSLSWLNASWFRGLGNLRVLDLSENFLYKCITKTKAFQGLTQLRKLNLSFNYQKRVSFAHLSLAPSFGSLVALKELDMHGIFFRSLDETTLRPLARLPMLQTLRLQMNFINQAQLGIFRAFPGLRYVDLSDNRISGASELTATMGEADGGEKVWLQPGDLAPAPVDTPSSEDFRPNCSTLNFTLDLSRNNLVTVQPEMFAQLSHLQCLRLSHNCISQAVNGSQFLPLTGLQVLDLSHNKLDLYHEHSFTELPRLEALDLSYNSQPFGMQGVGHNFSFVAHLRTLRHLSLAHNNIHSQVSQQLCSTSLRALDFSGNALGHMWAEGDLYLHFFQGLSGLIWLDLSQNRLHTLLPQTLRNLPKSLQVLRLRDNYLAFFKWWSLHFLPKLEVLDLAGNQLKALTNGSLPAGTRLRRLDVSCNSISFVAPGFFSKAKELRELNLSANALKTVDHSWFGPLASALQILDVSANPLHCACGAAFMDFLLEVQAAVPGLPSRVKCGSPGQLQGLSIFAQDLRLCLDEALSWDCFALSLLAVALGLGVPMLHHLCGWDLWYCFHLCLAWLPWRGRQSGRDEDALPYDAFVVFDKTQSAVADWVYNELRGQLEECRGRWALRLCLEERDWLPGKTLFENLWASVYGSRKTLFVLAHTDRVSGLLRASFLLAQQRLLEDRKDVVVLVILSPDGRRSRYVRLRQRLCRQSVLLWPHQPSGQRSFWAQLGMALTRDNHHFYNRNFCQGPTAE
# Target: Toll-like receptor 9 (Homo sapiens) + Myeloid differentiation primary response protein MyD88 (Homo sapiens) (UniProt Q9NR96+Q99836)
# Assay: disruptors of TLR9 binding to MyD88 – cell-based, CHO, BLA complementation, fluorescence, primary screen (AID 504734);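 further: 0% = DMSO only wells and 100% = clavulanate BLA inhibitor control wells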
# Details: CHO BLA complementation TLR9-MyD88, CCF4 FRET ratio; at 4.98 µM; active compounds read high
row,Compound,inhibition
1,Cc1ccc(C(=O)NCC2(N3CCCCC3)CCCCC2)cc1,inactive: -2.72%
2,CC(C)N1C(=O)CC2(CCN(CCOC(=O)C(O)(c3ccccc3)c3ccccc3)CC2)C1=O,inactive: -2.32%
3,CCN(CC)CC(C)C(C)OC(=O)C(O)(c1ccccc1)c1ccccc1 (stereo unspecified),inactive: -14%
4,COc1cc(SC)ccc1C(=O)NCC1(N(C)C)CCCCC1,inactive: 13.8%
5,CN1[C@@H]2CC[C@H]1CC(OC(=O)C(O)(c1ccccc1)c1ccccc1)C2 (stereo partly specified),inactive: 0.11%
6,O=C(NCC1(N2CCCCC2)CCCCC1)c1cc([N+](=O)[O-])ccc1Cl,inactive: -5.17%
7,Cc1cc(C(=O)NCC2(N3CCCCC3)CCCCC2)ccc1[N+](=O)[O-],inactive: 1.15%
8,CCN1CCCC(OC(=O)C2(O)c3ccccc3C=Cc3ccccc32)C1 (stereo unspecified),inactive: -3.88%
9,O=C(NCC1(N2CCCCC2)CCCCC1)c1cccc(Br)c1,inactive: -11.2%
10,COc1ccc(C(=O)NCC2(N(C)C)CCCCC2)cc1,inactive: 3.82%
11,C=CCN1CCN(CCOC(=O)C(O)(c2ccccc2)c2ccccc2)CC1,inactive: -1.12%
12,O=C(NCC1(N2CCCCC2)CCCCC1)c1cc(F)c(F)cc1Cl,inactive: 1.32%
13,Cc1ccccc1C(=O)NCC1(N2CCCCC2)CCCCC1,inactive: -9.91%
14,CN(C)C1CCCC1OC(=O)C(O)(c1ccccc1)c1ccccc1 (stereo unspecified),inactive: -0.82%
15,CN(C)c1ccc(C(=O)NCC2(N(C)C)CCCCC2)cc1,inactive: -6.35%
16,O=C(NCC1(N2CCCCC2)CCCCC1)c1cccc(Cl)c1,inactive: -8.43%
17,COc1cccc(C(=O)NCC2(N3CCCCC3)CCCCC2)c1,inactive: -4.38%
18,COc1ccc(Cl)cc1C(=O)NCC1(N(C)C)CCCCC1,inactive: -2.64%
19,COc1cc(C(=O)NCC2(N(C)C)CCCCC2)c([N+](=O)[O-])cc1OC,inactive: -2.73%
20,CN(C)C1(CNC(=O)c2ccc(Br)cc2)CCCCC1,inactive: -7.06%
21,CN(C)c1cccc(C(=O)NCC2(N(C)C)CCCCC2)c1,inactive: 7.24%
22,CC(C)Oc1ccc(C(=O)NCC2(N(C)C)CCCCC2)cc1,inactive: -0.52%
23,O=C(OCCN1CCCC1)C(O)(c1ccccc1)c1ccccc1,inactive: 4.51%
24,COc1ccc(Br)c(C(=O)NCC2(N3CCCCC3)CCCCC2)c1,inactive: 0.26%
25,C=C(C)C#CC(O)(C(=O)OC1CCN(C)CC1)c1ccccc1 (stereo unspecified),inactive: -5.57%
26,O=C(OC1CN2CCC1CC2)C(CO)(c1ccccc1)c1ccccc1 (stereo unspecified),inactive: -1.47%

# Reference: PubChem BioAssay AID504734 (The Scripps Research Institute Molecular Screening Center, 2011)
